The text below walks through data of EP0328389A2, “Compostions for treating intracranial tumors” (MATRIX PHARMACEUTICAL INC., priority 1988, dated 1989).

The test deals with KHT brain tumor. Nature of the test: Histopathological evaluation of KHT brain tumor response to intracerebrally implanted treatment. Format: in vivo, C3H mice. As to conditions: 0.2 mg/kg i.c., surviving mice sacrificed day 16 or 18. On the procedure: The use of vinblastine (VBL) and vincristine (VC) alone and in combination with a protein carrier on the growth of experimental murine tumors grown intracranially was investigated. Halothane-anesthesized C3H mice 12-16 weeks in age were injected intracranially (i.c.) into the right frontal lobe with 10 µl total volume of Hank's balanced salt solution containing 5 X 10⁴ KHT fibrosarcoma cells through a burr hole made in the exposed cranium with a compressed air-driven drill. Following injection, the cranium was sealed with bone wax, and the overlying skin was sutured. Five days post tumor implantation the mice were randomly divided into the following groups based on the treatment solution administered intracranially: saline controls vinblastine (0.2 mg/kg) vinblastine + epinephrine (0.1 mg/kg) vinblastine + matrix (1:1 bovine collagen 36 mg/ml) vinblastine + epinephrine (0.1 mg/kg) + matrix (1:1 bovine collagen 36 mg/ml)
The test solution with and without matrix and the saline control were delivered intracranially (i.c.) in an injection volume of 10 µl through the same burr hole used for tumor cell inoculation. All mice were observed daily.
Surviving mice from each group were sacrificed on day 16 or 18 following tumor implantation. Cross-sections of whole mouse brains were examined histopathologically for the presence of tumor involvement in the brain.

Consider `CC[C@]1(O)C[C@@H]2CN(CCc3c([nH]c4ccccc34)[C@@](C(=O)OC)(c3cc4c(cc3OC)N(C)[C@H]3[C@@](O)(C(=O)OC)[C@H](OC(C)=O)[C@]5(CC)C=CCN6CC[C@]43[C@@H]65)C2)C1` [Vinblastine, vinblastine], for which the “Number of Mice With Varying Tumor Size: NED” value (NED = No evidence of disease, no tumor observed) is recorded as 3. Besides, under “large tumor = 30% or more of the cross-sectional area of the microscopic field”, the “Number of Mice With Varying Tumor Size: Large” value was determined as 2. Besides, the “%NED” value (share of mice with no evidence of disease) stood at 25%. Under “small tumor = 5-30% of the cross-sectional area”, the “Number of Mice With Varying Tumor Size: Small” value turned out to be 7.
